# Laboratory results: paper PMC8044163, “Vitamin D and lumisterol derivatives can act on liver X receptors (LXRs)” (Scientific Reports, 2021)
# Tested on: murine dermal fibroblasts
# Assay: RNA-Seq of newborn murine dermal fibroblasts
# Assay type: cell-based, mouse
# Details: 10^−7 M, 24 h
# Experimental: All animal studies followed guidelines outlined by the NIH Guide for the Care and Use of Laboratory Animals and protocols were approved by the Institutional Animal Care and Use Committee at the NIEHS or the UAB. The study was carried out in compliance with the ARRIVE guidelines (http://www.nc3rs.org.uk/page.asp?id=1357). Skin samples from newborn C57BL/6 mice were collected at the NIEHS. Dermal fibroblasts were isolated from the skin of newborn mice, 1–2 day old. Briefly, we followed the protocols described previously. The skin was washed in PBS, cut into smaller pieces and incubated in 2.4 U/ml of dispase II (Roche) overnight at 4 °C. The dermis was separated from the epidermis and incubated in 0.1% collagenase (Roche) at 4 °C overnight. Next day, it was cut into smaller pieces and incubated for 1 h in 0.25% Trypsin (CellGrow) at 37 °C. Single cell suspension was prepared by pipetting and draining through a cell strainer. After centrifugation, cell pellets were suspended in DMEM medium containing 10% charcoal-stripped fetal bovine serum (cFBS), mouse fibroblasts growth factor (FGF) and 1% antibiotic, and inoculated into tissue culture dishes (Midwest Scientific, TPP). Cells, in early passages, from different mice were pooled together to provide representative samples for experiments. Fibroblasts were cultured in Petri dishes (10 cm in diameter) in DMEM and 10% cFBS and triplicate semi-confluent cultures were treated as described.
# Triplicate cultures of murine fibroblasts were used for RNA isolation (RNAeasy Micro kit, Qiagen), the RNA samples were combined for each condition and at least 200 ng of RNA for each sample was used to create libraries for RNA sequencing by BGI Americas Corporation Service (Cambridge, MA)[67]. Quality of RNA and its concentration were determined using Agilent 2100.
# The raw sequence FASTQ files were aligned to Gencode’s GRCm38 p4 Release M11 genome using STAR version 2.5.4b (parameters used: –outReadsUnmapped Fastx; –outSAMtype BAM SortedByCoordinate; –outSAMattributes All; –outFilterIntronMotifs RemoveNoncanonicalUnannotated)[69]. The abundance of transcripts was calculated from the alignments using Cufflinks version 2.2.1 (parameters used: –G; –L; –library-type fr-firststrand). Samples were merged using default parameters with Cuffmerge[70],[71]. The differential expression was calculated using Cuffdiff’s default parameters. The raw data have been deposited at the NCBI GEO (GSE145818).
compound,measurement,value
"C=C1/C(=C\C=C2/CCC[C@]3(C)[C@@H]([C@H](C)CCCC(C)(C)O)CC[C@@H]23)C[C@@H](O)C[C@@H]1O [1,25(OH)2D3]",Adh7 log2(fold_change) vs control,2.0183
same,Aqp11 log2(fold_change) vs control,2.094
same,Arid3b log2(fold_change) vs control,-1.426
same,Bicd1 log2(fold_change) vs control,-1.552
same,Btc log2(fold_change) vs control,1.97
same,Car9 log2(fold_change) vs control,-1.495
same,Cbs log2(fold_change) vs control,-2.219
same,Ccl4 log2(fold_change) vs control,-inf
same,Cd68 log2(fold_change) vs control,2.205
same,Cd200 log2(fold_change) vs control,-1.825
same,Cherp log2(fold_change) vs control,-2.397
same,Clec2g log2(fold_change) vs control,-inf
same,Cnnm4 log2(fold_change) vs control,-2.074
same,Cox15 log2(fold_change) vs control,1.392
same,Cpa2 log2(fold_change) vs control,-2.331
same,Ctrl log2(fold_change) vs control,-1.577
same,Dcun1d1 log2(fold_change) vs control,-1.0358
same,Defb42 log2(fold_change) vs control,-1.991
same,Dtx1 log2(fold_change) vs control,-2.725
same,Ehf log2(fold_change) vs control,-1.559
same,Ercc2 log2(fold_change) vs control,-3.616
same,Erh log2(fold_change) vs control,-1.208
same,Fmnl1 log2(fold_change) vs control,-4.405
same,Gys2 log2(fold_change) vs control,-inf
same,Hist1h2ab log2(fold_change) vs control,1.991
same,Hist1h2bg log2(fold_change) vs control,-2.009
same,Hist1h2bh log2(fold_change) vs control,-inf
same,Hist1h4c log2(fold_change) vs control,-inf
same,Isl1 log2(fold_change) vs control,-1.839
same,Krt19 log2(fold_change) vs control,1.562
same,Larp1b log2(fold_change) vs control,-3.231
same,Lhx6 log2(fold_change) vs control,-1.589
same,Lsm5 log2(fold_change) vs control,-1.432
same,M1ap log2(fold_change) vs control,1.472
same,Med9os log2(fold_change) vs control,-1.409
same,Nckipsd log2(fold_change) vs control,1.89
same,Nr3c2 log2(fold_change) vs control,-2.823
same,Nr6a1 log2(fold_change) vs control,-2.368
same,Ntrk3 log2(fold_change) vs control,-inf
same,Parvg log2(fold_change) vs control,-3.218
same,Pde4dip log2(fold_change) vs control,-7.609
same,Psd4 log2(fold_change) vs control,-1.114
same,Ptpa log2(fold_change) vs control,1.829
same,Ptpn6 log2(fold_change) vs control,-2.246
same,Rnu3a log2(fold_change) vs control,-inf
same,Rpph1 log2(fold_change) vs control,-1.009
same,Rsad1 log2(fold_change) vs control,-1.12
same,Saa1 log2(fold_change) vs control,-2.331
same,Samd12 log2(fold_change) vs control,-2.281
same,Scn8a log2(fold_change) vs control,-1.158
same,Sgca log2(fold_change) vs control,-1.706
same,Slc15a4 log2(fold_change) vs control,-1.459
same,Slc16a5 log2(fold_change) vs control,-2.417
same,Snhg9 log2(fold_change) vs control,-2.331
same,St7 log2(fold_change) vs control,-1.115
same,Stmn1 log2(fold_change) vs control,1.247
same,Susd1 log2(fold_change) vs control,1.6295
same,Syt8 log2(fold_change) vs control,-1.076
same,Syt12 log2(fold_change) vs control,-2.052
same,Tldc2 log2(fold_change) vs control,-1.225
same,Tnnc2 log2(fold_change) vs control,-inf
same,Unc5c log2(fold_change) vs control,-1.742
same,Wdr17 log2(fold_change) vs control,-1.642
same,Zbtb18 log2(fold_change) vs control,-2.985
same,Zfp618 log2(fold_change) vs control,-1.519
